Measurements: patent US20130004936A1, “SUPERCOOLING PROMOTING AGENT” (National University Corporation Hokkaido Universit, priority 2010, published 2013)

Tests used:
Assay type in all cases: physicochemical
[1] = Supercooling activity, droplets on cooled copper plate, phloroglucinol as ice nucleus substance; conditions: 0.1 mass % substance; 120 mM phloroglucinol; cooling 0.2° C./min
Protocol: (§1) In the present invention, a supercooling activity (also referred to as ice nucleus formation inhibitory activity) was measured by the following method. That is, an object to be measured was mixed at […] in a buffer containing an ice nucleus substance to prepare a solution, and many 2-μL liquid droplets of the solution were placed on a copper plate where the temperature could be controlled. The copper plate was cooled at 0.2° C./min, and the number of frozen liquid droplets was visually observed. The temperature at which 50% of the liquid droplets were frozen was defined as a freezing temperature, and a difference between the freezing temperature of the solution including the object to be measured and the ice nucleus substance and the freezing temperature of a solution including only the ice nucleus substance and the buffer (control) (INT50 (° C.)) was defined as a supercooling activity. As the buffer, a 50 mM potassium phosphate buffer (pH 7.0) was used. […]

[2] = Supercooling activity, droplets on cooled copper plate, silver iodide as ice nucleus substance; conditions: 0.1 mass % substance; 10 mM AgI; cooling 0.2° C./min
Protocol: as §1

[3] = test system: dead bacterial cells of an ice nucleation active bacterium Xanthomonas campestris; assay: Supercooling activity, droplets on cooled copper plate, Xanthomonas campestris as ice nucleus substance; conditions: 0.1 mass % substance; 2 mg/mL dead X. campestris cells; cooling 0.2° C./min
Protocol: as §1

[4] = test system: dead bacterial cells of an ice nucleation active bacterium (Erwinia ananas); assay: Supercooling activity (ice nucleus formation inhibitory activity), 2-μL droplets on cooled copper plate, Erwinia ananas as ice nucleus substance; conditions: 0.1 mass % substance; 2 mg/mL dead E. ananas cells; cooling 0.2° C./min; temperature at which 50% of droplets froze
Protocol: as §1, with “activity.” for “activity. As the buffer, a 50 mM potassium phosphate buffer (pH 7.0) was used.”
The water suspension of the crude extract was centrifuged at 20° C. and 14,000 G, and the supernatant was collected. […] Supercooling activities of the parts were measured by the above-mentioned method. […]
The fractions K to S obtained above were analyzed by high-performance liquid chromatography (column: PC hydrophilic interaction chromatography column (HILIC), solvent: acetonitrile:water=9:1, flow rate: 1 mL/min, detector: UV 280 nm). […]

catechin
freezing temperature (INT50) [1]: −8.3 °C
freezing temperature (INT50) [2]: −4.7 °C
freezing temperature (INT50) [3]: −8.1 °C
freezing temperature (INT50) [4]: −5.7 °C
